The values that follow are results of earlier work, collected in US8592481B2, “Gastric retentive gabapentin dosage forms and methods for using same” (Depomed, Inc., priority 2005, dated 2013).

Read-outs that look alike come from different tables or passages of the source.

Turning to “1-(aminomethyl)cyclohexane acetic acid [gabapentin]”, the oral bioavailability result reads like this: (dose in the range of 300-400 mg) “approximately 60%”; (dose of 1600 mg) 35%. For the same substance, the “half-life (renal excretion)” value (single dose or multiple doses) was 5 to 7 h.
